Target: Aldo-keto reductase family 1 member B1 (Rattus norvegicus, UniProt P07943)
Experiment: Inhibition of aldose reductase in rat lens by spectrophotometer analysis
In short: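 Crude enzyme from rat lens homogenized in 9 volumes 100 mM potassium phosphate pH 6.2, spun 15,000 × g for 30 min at 4 °C, supernatant used. Assay in 50 mM potassium phosphate pH 6.2 with 0.4 M lithium sulphate, 5 mM β-mercaptoethanol, 10 mM DL-glyceraldehyde, 0.1 mM NADPH, at 37 °C. DMSO-dissolved compound preincubated 5 min, reaction started with NADPH, read spectrophotometrically, triplicate. IC50 by non-linear regression of % inhibition vs log concentration.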

IC50: 8 µM
SMILES: O=C1NC(=O)[C@@]2(CCOc3ccc(F)cc32)N1 [SORBINIL]

— ChEMBL document CHEMBL3259600, “Synthesis and biological evaluation of some new pyrazoline substituted benzenesulfonylurea/thiourea derivatives as anti-hyperglycaemic agents and aldose reductase inhibitors” (Eur J Med Chem, 2014)
